Laboratory results published in publication PMC3917282, “Alkaloids from the Mangrove-Derived Actinomycete Jishengella endophytica 161111” (Marine Drugs, 2014).
Converted amounts (≈) assume the structure as drawn.

What was measured:
[1] = system: influenza virus (A/Puerto Rico/8/34 (H1N1), PR/8); format: cell-based
in vitro = conditions: dog

Cc1cc2nc3[nH]c(=O)[nH]c(=O)c3nc2cc1C [Compound 10, lumichrome]
selectivity index (SI) [1]: 3.1 | CC50 (in vitro): 124 ± 10.5 µg/mL (≈ 512 µM)
